AlphaSeq binding of Ab-14 light chain variants to a spike HR2 peptide

The target is the same throughout: PDVDLGDISGINAS, from the HR2 region of SARS-CoV-2 spike.

Each scFv is VH, three GGGGS repeats, VL, as in the parent Ab-14, and differs from it in the CDRs of the light chain only.
VH: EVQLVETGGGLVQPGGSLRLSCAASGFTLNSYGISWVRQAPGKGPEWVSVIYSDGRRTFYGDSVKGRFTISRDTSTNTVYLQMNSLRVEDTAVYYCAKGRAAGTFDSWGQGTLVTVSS
VL: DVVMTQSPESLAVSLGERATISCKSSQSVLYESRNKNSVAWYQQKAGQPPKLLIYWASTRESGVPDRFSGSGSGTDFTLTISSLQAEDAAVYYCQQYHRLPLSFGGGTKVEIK

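Phage display of a naive human antibody library on the peptide gave the parent. The variants were designed computationally from a first round of random CDR variants and then made and measured. Group labels follow the data file (En: ensemble of fine-tuned language models; GP: Gaussian process model; HC: hill climbing; Gen: genetic algorithm; Gibbs: Gibbs sampling; a sequence that several methods proposed may carry one label only). The scFvs were displayed on barcoded MATa yeast, the peptide on MATalpha yeast. The frequency of each diploid, read from paired DNA barcodes, reflects how well the two displayed proteins bind. Scores were corrected for input abundance and mapped to Kd with protein pairs of known affinity run in the same pool. Mating was done six times.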

Variants are written as CDR1, CDR2 and CDR3 of the light chain (limits as in the source). Parent: KSSQSVLYESRNKNSVA, WASTRES, QQYHRLPLS. This list holds designs with more than six substitutions. Each Kd is an estimate from the mating assay, the geometric mean of the replicates in which the pair was seen; lower is stronger. Where no diploid with the target was found in any replicate, the entry reads "nd": below detection, most likely a poor binder, though not proof of it. In the paper, a design with two or fewer of six values counts as a poor binder. Three control strains display no target. For all light chain designs, 4% of the pairings with them gave a signal, with a median of 430 nM and one signal in twenty below 38 nM, so weak values seen in few replicates may be background. Also given: how often the same scFv was detected with the empty control strains. Values of this round are not directly comparable with the first-round values of the same sequences. The parent sequence was in this pool as ten entries: three were never detected, three once, and four in most replicates, with averages from 2.2 nM to 240 nM.

For KLSMSVLMEQRNKNSVA, SANQREE, QQYHRLPLS [GP_Gibbs], the assay gave 1.2 nM (6 of 6 replicates; controls 3 of 18).
For HISGFMKSLSAHMNNVA, DMTNRED, QQYDRLPLS [En_Gen], the assay gave 2.0 nM (6 of 6 replicates; controls 1 of 18).
For KLSQSVDYLSRNMNNVA, NASTRES, QDYHRLPLS [GP_Gibbs], the assay gave 1.6 nM (6 of 6 replicates; controls 3 of 18).
For KLSASTYRESMHENNVA, DLRARVE, QQYHRLPLS [En_HC], the assay gave 1.6 nM (6 of 6 replicates; controls 1 of 18).
For KIRVQQYSQSEMEDNIA, QESVRHQ, QQYFHLPLS [En_Gibbs], the assay gave 30 nM (3 of 6 replicates; controls 0 of 18).
For MVLKEDFQELAAKNAVA, NASEKET, QHYNRLPLV [En_Gibbs], the assay gave 19 nM (6 of 6 replicates; controls 1 of 18).
For HITMGTYVSGRHHSNIA, QAETRAK, QQYDRLPLI [En_Gen], the assay gave 65 nM (6 of 6 replicates; controls 0 of 18).
For TISQSTYWESRNKNSVA, QTETREE, QDYDRLPLS [En_HC], the assay gave 140 nM (5 of 6 replicates; controls 0 of 18).
For IIAQLMYWGNKHANSIA, QASQRLN, QQYHHLPLT [En_Gen], the assay gave 320 nM (2 of 6 replicates; controls 0 of 18).
For KLPLATMQNSVSKNNVA, ELSTRGS, QQYHRLPLS [En_HC], the assay gave 2.5 nM (6 of 6 replicates; controls 0 of 18).
For KISQMVNFESTHVNAVA, QMSTREE, QQYFRLPLS [En_HC], the assay gave 9.0 nM (6 of 6 replicates; controls 1 of 18).
For MISDLTTYGLRNVNSVA, DLSTRGN, QQYDRLPLS [En_HC], the assay gave 3.7 nM (6 of 6 replicates; controls 2 of 18).
For KNDISHLGESRNKNAVA, QASTREE, QQYHRLPLS [GP_Gibbs], the assay gave 930 pM (6 of 6 replicates; controls 0 of 18).
For KQEQGDLMESRNKNSVA, HASERES, QQYHRLPLS [GP_Gibbs], the assay gave 1.1 nM (6 of 6 replicates; controls 0 of 18).
For KIGHGLTTEMRNKNSVA, QTETRVS, QHYHRLPLS [En_HC], the assay gave 36 nM (2 of 6 replicates; controls 0 of 18).
For MISDLTMYGSRNKNSVA, DLSTRGY, QQYHRLPLS [En_HC], the assay gave 1.4 nM (6 of 6 replicates; controls 0 of 18).
For KLRSMTLTEGYFKNSVA, QASTREN, QSYHRLPLS [En_HC], the assay gave 12 nM (6 of 6 replicates; controls 0 of 18).
For MLDNCQEGYYQKNNNVA, EMNARMY, QQYGRLPLM [En_Gibbs], the assay gave 22 nM (6 of 6 replicates; controls 0 of 18).
For KISQMQRVGSTHTNSIA, EEATRAK, QQYHRLPLF [En_Gen], the assay gave 28 nM (6 of 6 replicates; controls 0 of 18).
For HVAGMMHQMGTQHQNIA, DMAIKCD, QQYQRLPLH [En_Gibbs], the assay gave 1.6 nM (6 of 6 replicates; controls 1 of 18).
For NMQMQDDLMLNAKQNVA, GVDMREE, QQYFRLPLL [En_Gibbs], the assay gave 3.2 nM (6 of 6 replicates; controls 1 of 18).
For KSSQLQDYGDRNSNSVA, NASQREH, QQYHRLPLS [GP_Gibbs], the assay gave 2.2 nM (6 of 6 replicates; controls 0 of 18).
For IVSQLMLWGWMAKNSIA, EAVTRLN, QQYDRLPLF [En_Gen], the assay gave nd (0 of 6 replicates; controls 0 of 18).
For KIGMTLNQLMHQKNNVA, DLVQREN, QQYFRLPLS [En_Gen], the assay gave 8.0 nM (6 of 6 replicates; controls 0 of 18).
For KLEQSVMLESRNVNSVA, SASRREL, QQYHRLPLS [GP_Gibbs], the assay gave 1.2 nM (6 of 6 replicates; controls 0 of 18).
For MISDMGLHDSRLQNSVA, NNSTREA, QQYDRLPLS [En_HC], the assay gave 83 nM (1 of 6 replicates; controls 0 of 18).
For ILSQMMLTAGNKHSSVA, QANNRYD, QQYHRLPLS [En_HC], the assay gave nd (0 of 6 replicates; controls 0 of 18).
For KISQMYRYEQQNSSSIA, EMNTREQ, QSYHRLPLS [En_HC], the assay gave nd (0 of 6 replicates; controls 0 of 18).
For NITGMVNSKGTTTKNIA, EAEFRCG, QQYSRLPLS [En_Gibbs], the assay gave 78 nM (6 of 6 replicates; controls 3 of 18).
For KLSMITGHMSMSKNNVA, EMVTREK, QQYNRLPLA [En_Gen], the assay gave 16 nM (6 of 6 replicates; controls 0 of 18).
For QISMLLNFESYKGSNVA, QMETRVN, QQYHHLPLS [En_Gen], the assay gave 2.0 nM (6 of 6 replicates; controls 2 of 18).
For KFQWSNLYESRNKNSVA, NASTRMS, QQYWRLPLS [GP_Gibbs], the assay gave 1.3 nM (6 of 6 replicates; controls 2 of 18).
For MVSQLMLWGHLAKNSIA, EAQTRLN, QQYDRLPLF [En_Gen], the assay gave 17 nM (1 of 6 replicates; controls 0 of 18).
For TISQVMNTLTRNTNNVA, DLTERED, QQYFRLPLS [En_Gen], the assay gave 50 nM (3 of 6 replicates; controls 0 of 18).
For KLRESHHVESKQKNNVA, DNSTRES, QDYHRLPLS [En_HC], the assay gave 130 nM (5 of 6 replicates; controls 3 of 18).
For KSSCSEPYDSLNSNSVA, NASQRER, QQYHRLPLS [GP_Gibbs], the assay gave 7.2 nM (6 of 6 replicates; controls 1 of 18).

The first 3 entries again:

CDR-L1	CDR-L2	CDR-L3	group	Kd	replicates with signal	control signals
KLSMSVLMEQRNKNSVA	SANQREE	QQYHRLPLS	GP_Gibbs	1.2 nM	6 of 6	3 of 18
HISGFMKSLSAHMNNVA	DMTNRED	QQYDRLPLS	En_Gen	2.0 nM	6 of 6	1 of 18
KLSQSVDYLSRNMNNVA	NASTRES	QDYHRLPLS	GP_Gibbs	1.6 nM	6 of 6	3 of 18

Source: Li et al. 2023 (doi:10.1038/s41467-023-39022-2), MIT Lincoln Laboratory and A-Alpha Bio; data file from the FLAb repository.